Assay results as given in ChEMBL document CHEMBL3822450, “Novel c-Met inhibitory olive secoiridoid semisynthetic analogs for the control of invasive breast cancer” (Eur J Med Chem, 2016).

What was measured:
Assay in all cases: cells
MDA-MB-231 [1] = settings: Homo sapiens, MDA-MB-231, 24 h
MDA-MB-468 = settings: Homo sapiens, MDA-MB-468, 72 h
MDA-MB-231 [2] = settings: Homo sapiens, MDA-MB-231, 72 h
MDA-MB-231 [3] = settings: Homo sapiens, MDA-MB-231, 24 h; remark: listed apart in the source

IC50 (MDA-MB-231 [1]): 18.2 µM
IC50 (MDA-MB-468): 19.1 µM
IC50 (MDA-MB-231 [2]): 15 µM
IC50 (MDA-MB-231 [3]): 7.5 µM
Structure (SMILES): C/C=C(/C=O)[C@@H](C=O)CC(=O)OCCc1ccc(O)cc1
